Experimental findings from article PMC5908301, “Small molecule CXCR4 antagonists block the HIV-1 Nef/CXCR4 axis and selectively initiate the apoptotic program in breast cancer cells” (Oncotarget, 2018) are described below.

By UniProt entry, the sequences of proteins in these tests, tags left out.
UniProt P61073, whole entry: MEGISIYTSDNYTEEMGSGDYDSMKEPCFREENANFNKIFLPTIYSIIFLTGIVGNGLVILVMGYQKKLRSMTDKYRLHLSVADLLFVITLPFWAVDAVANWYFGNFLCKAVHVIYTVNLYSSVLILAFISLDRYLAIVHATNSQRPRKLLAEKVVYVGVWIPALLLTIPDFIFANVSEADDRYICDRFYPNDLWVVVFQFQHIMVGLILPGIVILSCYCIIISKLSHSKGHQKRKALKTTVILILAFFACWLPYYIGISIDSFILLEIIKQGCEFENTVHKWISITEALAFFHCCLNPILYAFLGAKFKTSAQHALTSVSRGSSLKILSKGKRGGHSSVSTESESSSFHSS

The target of this experiment is CXCR4 (Homo sapiens, UniProt P61073). Kind of experiment: Calcium flux induced by SDF-1α in human CXCR4-expressing Chem-1 cell line. In kind it is cell-based. On the set-up: human CXCR4–expressing (full length cDNA) Chem-1 cell line; expressed in transfected cells; host or cells: Chem-1 cell line. The settings on record: Fluo-4, FLIPR; read-out: EC50 for calcium mobilization. A general note: A change in cytosolic calcium serves as a functional read-out for many receptors and channels.

One may read the EC50 as the midpoint of the concentration-response curve. As to SDF-1α, the EC50 was about 4 nM.
